Test system: iC9/CAR.19/IL15-transduced CB-NK cells
Assay: Activation of inducible caspase-9 suicide gene in vitro (annexin-V/7AAD staining)
Type: cell-based
Conditions: 10 nM dimerizer, within 4 hours
Excerpt: FIGS. 30A-30B: Activation of the inducible caspase-9 suicide gene eliminates iC9/CAR.19/IL15+ CB-NK cells.
iC9/CAR.19/IL15+ CB-NK cells are eliminated after activation of the suicide gene by exposure to a small-molecule dimerizer. To counteract the possibility of excessive toxicity mediated by the release of inflammatory cytokines by transduced CB-NK cells or uncontrolled NK cell growth, we incorporated a suicide gene based on the inducible caspase-9 gene in the construct (Di et al., 2011). […] The suicide gene was also effective in vivo.

## CC[C@H](C(=O)N1CCCC[C@H]1C(=O)O[C@H](CCc1ccc(OC)c(OC)c1)c1cccc(OCC(=O)NCCNC(=O)COc2cccc([C@@H](CCc3ccc(OC)c(OC)c3)OC(=O)[C@@H]3CCCCN3C(=O)[C@@H](CC)c3cc(OC)c(OC)c(OC)c3)c2)c1)c1cc(OC)c(OC)c(OC)c1 [AP1903]
  apoptosis/necrosis of transgenic cells: 60%

— US20220325245A1 (Board of Regents, The University of Texas System, priority 2019, published 2022)
